In patent EP4835056A1, “CELL CULTURE METHOD” (dated 2026):

Experiments:
[1] = tested on: iPS cell-derived CAR-T cells; test: Proliferation test: adding carnosine or α-tocopherol to serum-free expansion culture medium (Experimental Example 1-1); settings: result in words; for proliferation of iPS cell-derived CAR-T cells / survival rate of iPS cell-derived CAR-T cells: 20 mM carnosine or 100 µM α-tocopherol added to serum-free medium
Experimental: A total of three types of expansion culture media were prepared: a medium containing the components listed in Table 2 (hereinafter to be referred to as BM220720), and further, the additives listed in the "expansion culture medium 2" column in Table 1, and said medium added with 20 mM carnosine (Sigma-Aldrich) or 100 µM α-tocopherol (Sigma-Aldrich). As an experimental control, a medium was prepared by adding the additives listed in the "expansion culture medium 1" column in Table 1 to IMDM medium containing 15% FBS. After 3 days of activation culture, the cells were collected from the T225 flask and suspended in each of the four types of expansion culture media at 40,000 cells/mL, and cultured under 5% CO2/37°C using G-Rex (registered trademark) 6M (Wilson Wolf). Then, on the second day of culture, some of the cells were recovered from G-Rex (registered trademark) 6M and the cells were counted, and the medium was replaced with the respective medium. On the third day of culture, some of the cells were recovered from G-Rex (registered trademark) 6M and the cells were counted. On the fourth day of culture, some of the cells were recovered from G-Rex (registered trademark) 6M and the cells were counted.
In the expansion culture of item 6 in Example 1, the cell number and survival rate of iPS cell-derived CAR-T cells were measured on days 2, 3, and 4 of expansion culture. The proliferation of iPS cell-derived CAR-T cells was promoted by adding 20 mM carnosine or 100 µM α-tocopherol to a serum-free medium (Table 3). […] The survival rate of iPS cell-derived CAR-T cells was improved by adding 20 mM carnosine or 100 µM α-tocopherol to the serum-free medium (Table 4).

[2] = tested on: iPS cell-derived CAR-T cells; test: Proliferation ability of cryopreserved cells in serum-containing medium after thawing (Experimental Example 1-2); settings: expansion culture medium contained 20 mM carnosine or 100 µM α-tocopherol before cryopreservation; result in words
Experimental: In the expansion culture of item 6 of Example 1, cells were collected on the third day of expansion culture of iPS cell-derived CAR-T cells, and the cells were counted. A suspension containing a specified number of cells was centrifuged at 300xg for 5 minutes, and the supernatant was removed. The cell aggregate was suspended at 8,000,000 cells/mL in MEM medium to which Albumin 25% I.V. Injection 12.5 g/50 mL (product name) was added to a final albumin concentration of 5%, an equal amount of CryoStor (registered trademark) CS10 (STEMCELL Technologies) was added to this suspension, and the mixture was cryopreserved. After thawing the cryopreserved cells, the cells were suspended in IMDM medium containing 15% FBS, 2 mM glutamine, ITS (x1), and 50 µg/mL ascorbic acid 2-phosphate sesquimagnesium salt hydrate at 125,000 cells/mL, and cultured under 5% CO2/37°C by using a G-Rex 24-well plate. The number of viable cells and cell survival rate were measured on days 0, 3, and 7 of culture. […] However, the proliferation fold was lower than that of cells expanded in a medium containing 15% FBS.

Structure (SMILES)	proliferation of iPS cell-derived CAR-T cells [1]	survival rate of iPS cell-derived CAR-T cells [1]	proliferation fold after thawing [2]	survival rates from day 0 to day 7 after thawing [2]	proliferation fold compared with a medium containing 15% FBS ([1]; 20 mM carnosine added to serum-free medium)
Cc1c(C)c2c(c(C)c1O)CCC(C)(CCCC(C)CCCC(C)CCCC(C)C)O2 (stereo not drawn)	promoted	improved	improved	improved	–
NCCC(=O)N[C@@H](Cc1cnc[nH]1)C(=O)O	promoted	improved	improved	improved	higher proliferation fold
